Values quoted from earlier work in paper PMC5663926, “In vivo near-infrared imaging of ErbB2 expressing breast tumors with dual-axes confocal endomicroscopy using a targeted peptide” (Scientific Reports, 2017).

How the values were obtained:
[1] = test system: human BT474 xenograft breast tumors; conditions: in vivo; cited from earlier work
Procedure: ErbB2 antibodies are being used clinically to detect breast cancer metastases in vivo with whole-body imaging methods, such as PET and SPECT[13],[14]. Other targeting ligands are being evaluated in pre-clinical models. Antibody fragments, such as the Fab component of trastuzumab, have been radiolabeled with^111In, and used to visualize human BT474 xenograft breast tumors as early as 24 hours post-injection[35]. By comparison, we were able to detect peak signal with an ErbB2 peptide at 1 hour post-injection. Affibody molecules are small, stable non-immunoglobulin scaffold-based proteins that ha ...

ErbB2 = conditions: cited from earlier work
Source text: Commonly used clinically for breast cancer therapy, this antibody has recently been repurposed to visualize ErbB2 expression using PET and SPECT[13],[14]. Antibodies are bulky in size, and have limited usefulness for diagnostic imaging because of slow binding kinetics, long circulatory half-life, and increased background. Performance can also be impaired by slow tumor localization, heterogeneous distribution, and inadequate concentration, while immunogenicity can limit repeated use. We have de ...

## Fab component of trastuzumab
[1]
  earliest time of tumor visualization: 24 h

## trastuzumab: monoclonal antibody against ErbB2
ErbB2
  affinity and specificity for ErbB2: high affinity and specificity
